Results as given in article PMC7704689 (Bioorganic & medicinal chemistry letters, 2020).

Columns and labels:
[1] = test system: NOD/SCID mice; conditions: 5 mg/kg IP every other day, three times per week, 24 days
[2] = test system: mice infected with Plasmodium berghei; conditions: orally 3 mg/kg/day (QD), four consecutive days, P. berghei infected mice; cited from earlier work

## Brusatol [reference compound]
[1]
  mice survived (of 4 per group): three
[2]
  mice that died: four out of five
